The nature of the test: Inhibition of [3H]- DPDPE binding to delta opioid receptor of guinea pig brain.

By Ki is commonly meant a dissociation constant, usually derived from enzyme kinetics or from competition with a known ligand.

Consider `CC(NC(=O)[C@@H](N)Cc1ccc(O)cc1)C(=O)N[C@@H](Cc1ccccc1)C(=O)N[C@@H](CC(=O)O)C(=O)N[C@H](C(=O)N[C@H](C(=O)NCC(N)=O)C(C)C)C(C)C` (single isomer, unassigned) [deltorphin C], for which the inhibition constant Ki came out at 1.7 nM.

(Values after BindingDB's records for doi:10.1021/jm00007a020 (Eastern Michigan University, 1995).)
